Values of other authors as cited in US12290595B2, “Implantable depots for the controlled release of therapeutic agents” (Foundry Therapeutics, Inc., priority 2017, dated 2025).

Conditions: 28 wt % maraviroc, PVP electrospun nanofiber, 2.5 wt % Tween 20

For maraviroc, the “time to complete release” value is listed as “six”.
